Experiment [1] in a line: NCI Yeast Anticancer Drug Screen. Data for the rad52 strain (AID 147).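 Also: 0% = growth of vehicle-treated control cultures.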 Conditions: S. cerevisiae rad52 mutant growth inhibition, stronger effect = higher value. The method, boiled down:
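Yeast strain carrying a DNA damage repair alteration was exposed to test compounds. Growth inhibition was measured relative to vehicle-treated controls.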

A short description of experiment [2]: NCI Yeast Anticancer Drug Screen. Data for the wt1 strain (AID 149).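 Also: 0% = growth of vehicle-treated wt1 cultures.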 The following applies: S. cerevisiae wt1 strain (SPY 50644) growth inhibition, stronger effect = higher value. The procedure, abridged: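 Each compound is tested on wt1 yeast and the loss of growth versus vehicle gives the inhibition value.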
The nature of experiment [3]: NCI Yeast Anticancer Drug Screen. Data for the rad50EPP+ strain (AID 151).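 Also: 0% = growth of vehicle-treated control cultures.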 The following applies: S. cerevisiae rad50 mutant strain, stronger effect = higher value. The procedure, abridged:
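Yeast strain carrying rad50 alteration (rad50EPP+) exposed to compounds; growth inhibition measured relative to vehicle-treated controls.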

Experiment [4] in a line: NCI Yeast Anticancer Drug Screen. Data for the mgt1 strain (AID 153). The following applies: S. cerevisiae mgt1 mutant growth inhibition, stronger effect = higher value. The procedure, abridged: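 Yeast mgt1 strain (DNA repair/cell-cycle alteration panel) exposed to compounds; growth inhibition measured relative to vehicle-treated controls.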
Experiment [5] in a line: NCI Yeast Anticancer Drug Screen. Data for the rad50 strain (AID 155).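 Also: 0% = growth of vehicle-only cultures of the same strain.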 Conditions: S. cerevisiae rad50 strain growth inhibition, stronger effect = higher value.
Experiment [6] can be described thus: NCI Yeast Anticancer Drug Screen. Data for the mec2-1 strain (AID 157). Conditions: S. cerevisiae mec2-1 strain, stronger effect = higher value.
A short description of experiment [7]: NCI Yeast Anticancer Drug Screen. Data for the rad14 strain (AID 159).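 Also: 0% = growth of vehicle-treated control cultures.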 The following applies: S. cerevisiae rad14 strain growth inhibition, stronger effect = higher value. The method, boiled down: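 Inhibition of growth is reported for a repair-deficient yeast mutant following compound treatment, calculated relative to cultures that received vehicle.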
Experiment [8] is described as follows: NCI Yeast Anticancer Drug Screen. Data for the sgs1 mgt1 strain (AID 161).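 Also: 0% = growth of cultures given vehicle only.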 The following applies: S. cerevisiae sgs1 mgt1 strain, stronger effect = higher value.
Experiment [9] in a line: NCI Yeast Anticancer Drug Screen. Data for the CLN2oe strain (AID 163).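 Also: 0% = growth of vehicle-only control cultures.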 The following applies: S. cerevisiae CLN2oe strain, stronger effect = higher value. The method, boiled down: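 Yeast cells carrying a defined cell-cycle control alteration were exposed to test compounds. Growth inhibition was scored against vehicle-treated control cultures.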
Experiment [10] can be described thus: NCI Yeast Anticancer Drug Screen. Data for the cln2 rad14 strain (AID 165).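 Also: 0% = growth equal to vehicle treated cultures.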 Conditions: S. cerevisiae cln2 rad14 strain, stronger effect = higher value.
Experiment [11] in a line: NCI Yeast Anticancer Drug Screen. Data for the bub3 strain (AID 167). Conditions: S. cerevisiae bub3 mutant strain, stronger effect = higher value.
A short description of experiment [12]: NCI Yeast Anticancer Drug Screen. Data for the wt2 strain (AID 169).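 Also: 0% = growth of vehicle-treated yeast cultures.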 Conditions: S. cerevisiae wt2 strain growth inhibition, stronger effect = higher value. The procedure, abridged:
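Yeast cells were exposed to test compounds, and growth inhibition was measured relative to vehicle-treated controls.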

Experiment [13] can be described thus: NCI Yeast Anticancer Drug Screen. Data for the mlh1 strain (AID 171).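 Also: 0% = growth of vehicle-treated control cultures of the same strain.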 The following applies: S. cerevisiae mlh1 strain growth inhibition, stronger effect = higher value. The method, boiled down: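 Yeast carrying a defined genetic alteration in DNA damage repair or cell cycle control were exposed to test compounds. Growth inhibition was measured relative to vehicle-treated controls.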

Experiment [14] is described as follows: NCI Yeast Anticancer Drug Screen. Data for the sgs1 strain (AID 173).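 Also: 0% = growth of vehicle-only control cultures.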 The following applies: S. cerevisiae sgs1 mutant, stronger effect = higher value. The method, boiled down: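 Yeast mutant strains carrying defined defects in DNA damage repair or cell cycle control were exposed to test compounds. Growth inhibition was scored against vehicle-treated controls.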
A short description of experiment [15]: NCI Yeast Anticancer Drug Screen. Data for the mlh1 rad18 strain (AID 175). The following applies: S. cerevisiae mlh1 rad18 strain growth inhibition, stronger effect = higher value.
Experiment [16] in a line: NCI Yeast Anticancer Drug Screen. Data for the rad18 strain (AID 177). Conditions: S. cerevisiae rad18 mutant growth inhibition, stronger effect = higher value. The procedure, abridged: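 Yeast carrying a defined DNA damage repair alteration were exposed to compounds. Growth inhibition was expressed relative to vehicle-treated controls.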
The mark [17] stands for this setting: at 5.0 µM (retest, dose inferred, filed as 0.5).
The mark [18] stands for this setting: at 50.0 µM (retest, dose inferred, filed as 5.0).

SMILES strings stand for the structures. The entries are a selection whose mix differs from that of the whole data set. Some tests of the compounds listed are not included; inactive here does not mean inactive elsewhere. The source holds several records for some structures; these can differ, active in one and inactive in another. Active and inactive are the calls of the source. Rule as the data show it: active = growth inhibition above about 70%; inactive = the rest.

In the case of `CC(Cl)CN(C)CC(C)Cl` (stereo not drawn), the growth inhibition is inactive: 20% in experiment [1] (at 1.2 µM); inactive: 52% in experiment [1] (at 3.7 µM); active: 87% in experiment [1] (at 11.0 µM); active: 94% in experiment [1] (at 33.0 µM); active: 95% in experiment [1] (at 100.0 µM); inactive: -1% in experiment [2] (at 1.2 µM). Also, the growth inhibition in [2] (at 3.7 µM) was inactive: 1%; in [2] (at 11.0 µM), inactive: 6%; in experiment [2] (at 33.0 µM) it was inactive: 9%; in experiment [2] (at 100.0 µM) it was inactive: 10%; in experiment [3] (at 1.2 µM), inactive: 24%; in [3] (at 3.7 µM), inactive: 59%. The growth inhibition in experiment [3] (at 11.0 µM) is active: 90%; in experiment [3] (at 33.0 µM), active: 95%; in experiment [3] (at 100.0 µM) it was active: 96%; in experiment [4] (at 1.2 µM), inactive: -1%; in [4] (at 3.7 µM), inactive: -1%; in experiment [4] (at 11.0 µM), inactive: 15%. In addition, the growth inhibition was inactive: -12% in experiment [4] (at 33.0 µM); inactive: 7% in [4] (at 100.0 µM); inactive: 10% in [5] (at 1.2 µM); inactive: 30% in [5] (at 3.7 µM); inactive: 36% in experiment [5] (setting [17]); inactive: 60% in experiment [5] (at 11.0 µM). Also, the growth inhibition was active: 88% in experiment [5] (at 33.0 µM); active: 95% in experiment [5] (setting [18]); active: 72.8% in experiment [5] (at 50.0 µM); active: 92% in experiment [5] (at 100.0 µM); inactive: 4% in [6] (at 1.2 µM); inactive: 11% in [6] (at 3.7 µM). For the same compound, the growth inhibition is inactive: 7% in [6] (setting [17]); inactive: 20% in experiment [6] (at 11.0 µM); inactive: 41% in experiment [6] (at 33.0 µM); active: 74% in experiment [6] (setting [18]); active: 74.3% in experiment [6] (at 50.0 µM); inactive: 54% in experiment [6] (at 100.0 µM). The growth inhibition in experiment [7] (at 1.2 µM) was inactive: 8%; in [7] (at 3.7 µM), inactive: 17%; in [7] (at 11.0 µM), inactive: 39%; in experiment [7] (at 33.0 µM) it was active: 83%; in experiment [7] (at 100.0 µM) it was active: 83%; in experiment [8] (setting [17]), inactive: 31%. For the same compound, the growth inhibition in [8] (setting [18]) was active: 73%; in [8] (at 50.0 µM) it was inactive: 59.5%; in experiment [9] (at 1.2 µM), inactive: -1%; in experiment [9] (at 3.7 µM), inactive: -2%; in [9] (at 11.0 µM) it was inactive: -2%; in experiment [9] (at 33.0 µM), inactive: 3%. The growth inhibition in experiment [9] (at 100.0 µM) was inactive: 13%; in experiment [10] (setting [17]), inactive: 6%; in experiment [10] (setting [18]), active: 82%; in [10] (at 50.0 µM) it was active: 73.8%; in experiment [11] (at 1.2 µM), inactive: -1%; in experiment [11] (at 3.7 µM) it was inactive: -2%. In addition, the growth inhibition is inactive: -25% in experiment [11] (setting [17]); inactive: 5% in experiment [11] (at 11.0 µM); inactive: 3% in experiment [11] (at 33.0 µM); inactive: 8% in experiment [11] (setting [18]); inactive: 18.1% in [11] (at 50.0 µM); inactive: 5% in [11] (at 100.0 µM). Further, the growth inhibition in experiment [12] (at 1.2 µM) was inactive: 2%; in experiment [12] (at 3.7 µM), inactive: 4%; in experiment [12] (at 11.0 µM), inactive: 8%; in experiment [12] (at 33.0 µM) it was inactive: 14%; in [12] (at 100.0 µM) it was inactive: 15%; in [13] (at 1.2 µM), inactive: 2%. For the same compound, the growth inhibition in experiment [13] (at 3.7 µM) was inactive: 5%; in [13] (at 11.0 µM) it was inactive: 18%; in experiment [13] (at 33.0 µM), inactive: 19%; in experiment [13] (at 100.0 µM) it was inactive: 22%; in experiment [14] (at 1.2 µM) it was inactive: 10%; in [14] (at 3.7 µM), inactive: 23%. Besides, the growth inhibition was inactive: 45% in experiment [14] (at 11.0 µM); inactive: 59% in experiment [14] (at 33.0 µM); inactive: 59% in [14] (at 100.0 µM); inactive: 23% in experiment [15] (setting [17]); active: 95% in experiment [15] (setting [18]); inactive: 65.7% in experiment [15] (at 50.0 µM). Further, the growth inhibition in experiment [16] (at 1.2 µM) is inactive: 36%; in [16] (at 3.7 µM), active: 78%; in [16] (at 11.0 µM), active: 93%; in experiment [16] (at 33.0 µM) it was active: 94%; in experiment [16] (at 100.0 µM), active: 95%.

`CC(=O)CI`: the growth inhibition in experiment [5] (at 50.0 µM) is inactive: 6.1%; in experiment [6] (at 50.0 µM), inactive: 12.8%; in experiment [8] (at 50.0 µM), inactive: 4.75%; in [10] (at 50.0 µM), inactive: -14.3%; in [11] (at 50.0 µM) it was inactive: -7.25%; in experiment [15] (at 50.0 µM) it was inactive: -8%.

As to `ClCCN(CCCl)CCCc1ccccc1`, the growth inhibition in [5] (at 50.0 µM) was inactive: -4.2%; in experiment [6] (at 50.0 µM), inactive: 21.4%; in experiment [8] (at 50.0 µM) it was inactive: 18.1%; in experiment [10] (at 50.0 µM), inactive: -2.35%; in [11] (at 50.0 µM), inactive: 5.2%; in [15] (at 50.0 µM), inactive: 42.6%.

On to `CC#CC(O)(C(=O)OC1CN2CCC1CC2)C1CC1` (stereo not drawn), for which the growth inhibition in experiment [5] (at 50.0 µM) is inactive: 14.2%; in [6] (at 50.0 µM), inactive: 21.8%; in experiment [8] (at 50.0 µM), inactive: -1.85%; in experiment [10] (at 50.0 µM), inactive: -12.2%; in experiment [11] (at 50.0 µM), inactive: -7.65%; in experiment [15] (at 50.0 µM) it was inactive: -4.4%.

Regarding `C=C(C)C#CC(O)(C(=O)OC1CCN(C)CC1)C1CCCC1` (stereo not drawn), the growth inhibition in [5] (setting [17]) was inactive: -2%; in experiment [5] (setting [18]), inactive: 51%; in experiment [5] (at 50.0 µM), active: 70.1%; in experiment [6] (setting [17]), inactive: -2%; in [6] (setting [18]) it was inactive: 35%; in experiment [6] (at 50.0 µM), inactive: 44.3%. Also, the growth inhibition in [8] (setting [17]) is inactive: 21%; in experiment [8] (setting [18]) it was inactive: 53%; in experiment [8] (at 50.0 µM), inactive: 68.8%; in [10] (setting [17]) it was inactive: 20%; in experiment [10] (setting [18]), inactive: 67%; in experiment [10] (at 50.0 µM), inactive: 59.1%. Moreover, the growth inhibition in experiment [11] (setting [17]) is inactive: 3%; in experiment [11] (setting [18]), inactive: 60%; in [11] (at 50.0 µM), inactive: 59.2%; in experiment [15] (setting [17]), inactive: 17%; in [15] (setting [18]), inactive: 30%; in experiment [15] (at 50.0 µM), inactive: 62.9%.

Regarding `C[Si](C)(C)N(CCCl)CCCl`, the growth inhibition in experiment [5] (setting [17]) was inactive: 17%; in experiment [5] (setting [18]), active: 97%; in experiment [5] (at 50.0 µM) it was active: 98%; in [6] (setting [17]), inactive: 5%; in experiment [6] (setting [18]) it was active: 98%; in experiment [6] (at 50.0 µM), active: 96.8%. The growth inhibition in experiment [8] (setting [17]) was inactive: 11%; in experiment [8] (setting [18]) it was active: 98%; in experiment [8] (at 50.0 µM), active: 94.3%; in experiment [10] (setting [17]), inactive: 2%; in experiment [10] (setting [18]), active: 97%; in experiment [10] (at 50.0 µM), active: 92.1%. In addition, the growth inhibition in experiment [11] (setting [17]) was inactive: 9%; in experiment [11] (setting [18]), active: 97%; in [11] (at 50.0 µM) it was active: 97.8%; in [15] (setting [17]), inactive: 5%; in experiment [15] (setting [18]) it was active: 97%; in experiment [15] (at 50.0 µM) it was active: 93.9%.

Regarding `CN1CCC(OC(=O)C(O)(C#Cc2ccccc2)c2ccccc2)CC1` (stereo not drawn), the growth inhibition was inactive: -8.9% in [5] (at 50.0 µM); inactive: -13.3% in [6] (at 50.0 µM); inactive: -16.1% in experiment [8] (at 50.0 µM); inactive: -1.8% in [10] (at 50.0 µM); inactive: -11.2% in [11] (at 50.0 µM); inactive: -27.8% in [15] (at 50.0 µM).

(Values after PubChem BioAssay (NCI).)
